## Measured affinities in a library of Ab-14 heavy chain variants

Source: Engelhart et al. 2022 (doi:10.1038/s41597-022-01779-4), MIT Lincoln Laboratory and A-Alpha Bio; data file from the FLAb repository.

All variants were tested on one target, the spike HR2 peptide PDVDLGDISGINAS (SARS-CoV-2).

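The parent was found by panning a naive human phage display library on the peptide. Library AAYL49 holds single substitutions and randomly drawn double and triple substitutions in the CDRs. The assay is AlphaSeq: two haploid yeast populations carry antibody and antigen on their surface. After mating in shaken culture at 30 °C for 16 h, diploids were selected and their barcode pairs sequenced. The ratio of observed to expected reads was calibrated, replicate by replicate, on BCL2-family standards whose Kd was known from biolayer interferometry. Each pool was mated in three replicate cultures.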

Each scFv is VH, three GGGGS repeats, VL, as in the parent Ab-14, and differs from it in the CDRs of the heavy chain only.
VH: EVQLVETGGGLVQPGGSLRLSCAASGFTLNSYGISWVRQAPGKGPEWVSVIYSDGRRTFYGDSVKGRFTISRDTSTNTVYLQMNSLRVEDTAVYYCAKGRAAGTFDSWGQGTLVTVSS
VL: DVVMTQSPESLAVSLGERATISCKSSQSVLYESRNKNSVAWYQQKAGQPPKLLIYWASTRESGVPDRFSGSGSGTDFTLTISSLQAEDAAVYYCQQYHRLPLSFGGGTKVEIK

Substitutions are numbered in sequence along the VH above, starting at 1 (not Kabat). Every variant below is changed at I51 of the VH (sequential numbering). Scale: log10 of Kd in nM, estimated from mating counts; low values are strong binders. Where no diploid with the target was found in that replicate, the entry reads "nd": below detection, most likely a poor binder, though not proof of it. Three control strains display no target. For library AAYL49, 15% of the pairings with them gave a signal, with a median of 4.06 and one signal in twenty below 2.83, so weak values seen in few replicates may be background.

With I34C/I51L/K65N the result was nd, nd, nd. For S31T/I34T/I51F, the assay gave nd, nd, nd. With G26I/Y32C/I51K the result was 5.85, nd, nd. For I51S, the assay gave nd, nd, nd. The variant G26F/I51M/Y52I showed 5.09, nd, nd.

For V50L/I51M/V64W, the assay gave 5.46, nd, nd. For N30T/I51Q/F59E, the assay gave nd, nd, nd. The variant Y32K/I51Q showed 4.19, 4.27, nd. The variant G26H/I51K/G99A showed nd, 3.86, nd. With F27R/I51A/Y60V the result was nd, nd, nd.

For I51N/Y52L/K65Y, the assay gave nd, nd, nd. The variant F27V/V50A/I51Y gave nd, nd, nd. For V50I/I51W/K65Y, the assay gave nd, nd, nd. With G33Y/I34E/I51G the result was nd, nd, nd. The variant I51F/T58W/F59R showed 3.50, 3.93, nd.

The variant G26K/I51S/T104E showed 4.22, nd, nd. The variant I51R/R100V/S107C showed nd, nd, nd. The variant I51F/Y52M showed 4.90, nd, 4.45. For F27L/I51S/S107C, the assay gave 5.98, 4.04, 4.37. The variant S31E/I51Y/D62R showed nd, nd, nd.

With I51N/F59T/R100T the result was nd, 5.37, 3.65. For I34H/V50A/I51A, the assay gave nd, nd, nd. For I51E/Y60N, the assay gave nd, nd, nd. The variant I51S/Y60V/K65Y gave nd, nd, nd. The variant Y32I/I51R/G103L gave nd, nd, nd.

The variant I51T/R56C/R100V showed nd, nd, nd. With I51Y/Y52G/F105V the result was nd, nd, 3.15. The variant V50D/I51K/V64I gave nd, nd, nd. With I51M/D54P/R100I the result was nd, nd, nd. The variant I51L/Y52F/T58W gave nd, nd, nd.

The variant I51H/F105D/S107Q gave nd, nd, nd. The variant S31D/I51G/T58G showed 3.58, nd, nd. The variant I51C/R57K/G103N showed nd, nd, nd. The variant G26N/I51N/S107D gave nd, nd, 5.03. For I51E, the assay gave nd, 3.13, 3.65.

The variant I51A/A102Y/F105G gave nd, nd, nd. For I51N/G55A/D106A, the assay gave nd, nd, nd. For N30F/I34A/I51T, the assay gave nd, nd, nd. With V50L/I51H the result was nd, nd, nd. For I34E/I51P, the assay gave nd, nd, nd.

The variant V50H/I51N/V64K showed 3.36, nd, nd.

In this assay the parent's reference entry averaged 0.65; its copy inside this library read 4.11 (one replicate of three).